Reference: PMC7545998, “A snake toxin as a theranostic agent for the type 2 vasopressin receptor” (Theranostics, 2020)

Sequences of proteins named here, by UniProt entry; tags and fusion partners are left off. A change or cut given only in a name is not applied to a line headed by its entry.
UniProt Q00788, whole entry: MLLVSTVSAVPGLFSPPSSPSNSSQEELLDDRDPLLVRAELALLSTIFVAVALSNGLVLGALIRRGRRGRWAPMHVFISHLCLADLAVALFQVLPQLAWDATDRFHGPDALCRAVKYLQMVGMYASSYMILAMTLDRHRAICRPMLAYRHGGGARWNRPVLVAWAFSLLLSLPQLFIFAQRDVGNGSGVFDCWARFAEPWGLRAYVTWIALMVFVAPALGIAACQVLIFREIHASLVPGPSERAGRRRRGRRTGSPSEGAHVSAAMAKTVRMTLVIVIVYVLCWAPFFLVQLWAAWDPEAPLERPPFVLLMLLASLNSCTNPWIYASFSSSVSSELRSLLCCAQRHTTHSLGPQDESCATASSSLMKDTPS

Tests used:
Sprague-Dawley rats [1] = assay: Observation of toxic effects and therapeutic index in rats; type: in vivo, rat
[2] = tested on: rat model of hyponatremia; assay: Rat model of dDAVP-induced hyponatremia; type: in vivo; settings: for body weight change referring to D0: MQ1-treated rats
[3] = Plasma pharmacokinetics of MQ1 in rats (UPLC-MS/MS); type: in vivo, rat
rat V2R (rV2R) = molecular target: T1, rat V2R (rV2R) (Rattus norvegicus, UniProt Q00788); assay: [^3H]AVP competition binding, COS cells transiently expressing rV2R; settings: 1 nM [^3H]AVP, COS cell membranes, mean ± SD
T1 construct: expressed in transfected cells; host or cells: COS cells, transient; membranes prepared 48 h after transfection

Sprague-Dawley rats [4] = assay: Diuresis and urine osmolality with daily i.p. injection of 3 nmol/kg for 4 days; type: in vivo, rat; settings: daily i.p. 3 nmol/kg for 4 days
hV2R = molecular target: T2, hV2R (Homo sapiens, UniProt P30518); assay: [^3H]AVP competition binding, CHO cell line stably expressing hV2R; settings: 1 nM [^3H]AVP, mean ± SD, at least three independent experiments in duplicate
T2 construct: expressed in transfected cells

human V2R = molecular target: T3, human V2R (Homo sapiens, UniProt P30518); assay: cAMP production in CHO cells stably expressing hV2R (inverse agonism, cAMP Dynamic 2 kit); type: cell-based; settings: CHO stably expressing hV2R, 20,000 cells/well, 30 min at 37 °C, n=3; read-out: IC50, concentration-dependent decrease in cAMP production
T3 construct: expressed in transfected cells

[5] = 356 nmol/kg i.p., n = 3, geometric mean
[6] = 356 nmol/kg i.p., non-compartmental analysis
[7] = 356 nmol/kg i.p., plasma, n = 3, harmonic mean

Substance: mambaquaretin [MQ1]
- observable toxic effects (prostration, spiky coat, appetite or weight loss) (Sprague-Dawley rats [1]; from the lowest to the highest tested dose): never detected any observable toxic effects
- therapeutic index (Sprague-Dawley rats [1]; rats): about 100
- body weight change referring to D0 ([2]; D3): -4.57 ± 0.63%
- body weight change referring to D0 ([2]; D4): -6.03 ± 0.95%
- food intake ([2]; during the experiments): never noted any significant change in food intake
- Cmax ([3]; 356 nmol/kg (2.27 mg/kg) i.p., n = 3, geometric mean): 2100 ng/mL
- MQ1 plasma concentrations ([3]; 356 nmol/kg i.p., 1 h): 1.709 µg/mL
- MQ1 plasma concentrations ([3]; 356 nmol/kg i.p., 2 h): 0.486 µg/mL
- MQ1 plasma concentrations ([3]; 356 nmol/kg i.p., 3 h): 0.259 µg/mL
- MQ1 plasma concentrations ([3]; 356 nmol/kg i.p., 4 h): 1.239 µg/mL
- MQ1 plasma concentrations ([3]; 356 nmol/kg i.p., 5 h): 0.257 µg/mL
- MQ1 plasma concentrations ([3]; 356 nmol/kg i.p., 6 h): 0.378 µg/mL
- MQ1 plasma concentrations ([3]; 356 nmol/kg i.p., 8 h): 0.150 µg/mL
- MQ1 plasma concentrations ([3]; 356 nmol/kg i.p., 10 h): 0.299 µg/mL
- MQ1 plasma concentrations ([3]; 356 nmol/kg i.p., 12 h): 0.219 µg/mL
- MQ1 plasma concentrations ([3]; 356 nmol/kg i.p., 16 h): 0.154 µg/mL
- MQ1 plasma concentrations ([3]; 356 nmol/kg i.p., 24 h): 0.096 µg/mL
- MQ1 plasma concentrations ([3]; 356 nmol/kg i.p., 48 h, close to limit of quantification): 0.056 µg/mL
- MQ1 plasma concentrations ([3]; 356 nmol/kg i.p., 72 h, close to limit of quantification): 0.092 µg/mL
- MQ1 plasma concentrations ([3]; 356 nmol/kg i.p., 96 h, close to limit of quantification): 0.074 µg/mL
- AUClast [3, 5]: 11600 ng·h/mL
- Clearance/F [3, 5]: 2.12 mL/min/kg
- Kel [3, 5]: 0.0142 h⁻¹
- Tmax ([3]; 356 nmol/kg i.p., n = 3, median (min-max)): 4 (1-6) h
- k value, distribution phase of mean PK profile [3, 6]: 0.2557
- k value, elimination phase of mean PK profile [3, 6]: 0.0131
- T1/2α [3, 7]: 3.8 h
- T1/2β [3, 7]: 31 h
- pKi for rV2R (rat V2R (rV2R)): 8.14 ± 0.20
- fold decrease of osmolality vs control rats (Sprague-Dawley rats [4]): 4.3 fold
- fold increase of diuresis vs control rats (Sprague-Dawley rats [4]): 4.2 fold
- pKi for hV2R (hV2R): 8.33 ± 0.20
- IC50 (human V2R): 167 ± 12 nM
